{
  "source": "patent US20220381657A1",
  "about": "“METHOD FOR PREPARING BIOLOGICAL MATERIAL HAVING EXCELLENT LIGHT-TRANSMITTING PROPERTY” (RIKEN, priority 2016, published 2022)",
  "key": {"[1]": {"assay": "pH of the chemical", "settings": "Table 1"}, "[2]": {"assay": "OD400 of the chemical", "settings": "Table 1"}},
  "data": [
    {"smiles": "OCCN(CCO)CCO", "values": [
      {"measurement": "pH", "setting": "[1]", "value": 12.0},
      {"measurement": "OD400", "setting": "[2]", "value": 0.048}
    ]}
  ]
}
